Reported logP (octanol/water) values for industrial, environmental and drug-like chemicals

Data: OPERA 2.9 data sets, kmansouri/OPERA on GitHub.

The octanol-water partition coefficient is given as log10; larger values mean a more lipophilic compound. "via" names the databases from which the curators took the value.

The entry for CC(=O)N1CCCCCC1=O [2H-Azepin-2-one, 1-acetylhexahydro-] lists logP 0.95 (via eChemPortal).
The entry for Nc1ncnc2sccc12 [thieno[2,3-d]pyrimidin-4-amine] lists logP 0.96 (via OCHEM).
The entry for C=CS(=O)(=O)CCOCCNc1nc(F)nc(Nc2ccc(/N=N/c3ccc(/N=N/c4cc(S(=O)(=O)[O-])c5cc(S(=O)(=O)[O-])cc(S(=O)(=O)[O-])c5c4)cc3)cc2)n1.[Na+].[Na+].[Na+] lists logP -5.9 (via eChemPortal).
The entry for COc1cc(N)c(Cl)cc1C(=O)N[C@@H]1CCN(CCCOc2ccc(F)cc2)C[C@@H]1OC [Cisapride] lists logP 3.3 (via PubChem).
The entry for COc1cccc2c(O)c3c(c(N)c12)C(=O)C1=C(C[C@](O)(C(=O)CO)C[C@@H]1O[C@H]1C[C@@H](N2CCOC[C@@H]2C#N)[C@@H](O)[C@@H](C)O1)C3=O lists logP 1.97 (via OCHEM).
The entry for C=CC(=O)OCCCS(=O)(=O)[O-].[K+] [Potassium 3-sulfopropyl acrylate] lists logP -3.63 (via eChemPortal).
The entry for CN1CCN(N)CC1 [4-Methyl-1-piperazinamine] lists logP -1.61 (via eChemPortal).
The entry for CCCCCC(O)CC (stereo unspecified) [3-Octanol] lists logP 2.645 (via eChemPortal).
The entry for FC(F)(F)C(F)(F)Cl [Chloropentafluoroethane] lists logP 2.4 (via PubChem).
The entry for CCCC=C(C=O)CC [2-Ethyl-2-hexenal] lists logP 2.61 (via eChemPortal).
The entry for CC(=O)Oc1cc(C)c(OC(C)=O)c2ccccc12 [Acetomenaphthone] lists logP 3.59 (via OCHEM).
The entry for Br.C[N+](C)(C)CCOC(=N)[O-] lists logP -3.9 (via OCHEM).
The entry for CC(C)(O)C(=O)c1ccc(C2(C)CC(C)(C)c3ccc(C(=O)C(C)(C)O)cc32)cc1 (stereo unspecified) lists logP 3.19 (via eChemPortal).
The entry for O=C1CCCC(=O)C1C(=O)c1ccc(C(F)(F)F)cc1[N+](=O)[O-] [2-(2-Nitro-4-trifluoromethylbenzoyl)-1,3-cyclohexanedione] lists logP 1.6 (via PubChem).
The entry for CC(=O)NCc1ccc([N+](=O)[O-])cc1 [N-((4-Nitrophenyl)methyl)acetamide] lists logP 0.91 (via OCHEM).
The entry for O=S(=O)([O-])c1ccccc1/C=C/c1ccc(-c2ccc(/C=C/c3ccccc3S(=O)(=O)[O-])cc2)cc1.[Na+].[Na+] [Disodium 4,4'-bis(2-sulfostyryl)biphenyl] lists logP -2.32 (via eChemPortal).
The entry for Br.CCCCCCCOc1ccccc1/N=C(\[O-])OCC[N+]1(CCCCCC)CCCCC1 lists logP 5.38 (via OCHEM).
The entry for ClCCOCCOCCCl [1,2-Bis(2-chloroethoxy)ethane] lists logP 1.07 (via eChemPortal).
The entry for CCC[N+](C)(CCC)CCC.[I-] [N-Methyl-N,N-dipropylpropan-1-aminium iodide] lists logP -0.98 (via OCHEM).
The entry for N#Cc1cccc(S(=O)(=O)CCCS(=O)(=O)[O-])c1C#N.[Na+] [Sodium 3-((2,3-dicyanophenyl)sulfonyl)propane-1-sulfonate] lists logP -2.05 (via eChemPortal).
The entry for Cc1ccncn1 [Pyrimidine, 4-methyl-] lists logP 0.16 (via OCHEM).
The entry for CCn1cc[n+](C)c1.[Cl-] [1-Ethyl-3-methylimidazolium chloride] lists logP -2.6 (via eChemPortal).
The entry for Cn1c(-c2ccccc2)c(/N=N/c2scc[n+]2C)c2ccccc21.[Cl-] [C.I. Basic Red 29] lists logP -1 (via eChemPortal).
The entry for C[Si](C)(Cl)Cl [Dimethyldichlorosilane] lists logP -0.38 (via eChemPortal).
The entry for CC(Cl)(Cl)CC(Cl)(Cl)Cl [1,1,1,3,3-Pentachlorobutane] lists logP 2.7 (via eChemPortal).
The entry for Nc1nc(Cl)nc(Nc2cc(S(=O)(=O)[O-])cc3cc(S(=O)(=O)[O-])c(/N=N/c4cc(S(=O)(=O)[O-])c5cccc(S(=O)(=O)[O-])c5c4[O-])c([O-])c23)n1.[Cu+2].[Na+].[Na+].[Na+].[Na+] lists logP -4.7 (via eChemPortal).
The entry for COC(=O)c1ccc(C)c(N)c1 [Methyl 3-amino-4-methylbenzoate] lists logP 1.7 (via eChemPortal).
The entry for OCCOc1cccc(OCCO)c1 [2,2'-[Benzene-1,3-diylbis(oxy)]diethanol] lists logP 0.26 (via eChemPortal).
The entry for CCc1cc(S(=O)(=O)[O-])c2cc(C(C)C)cccc1-2.[Na+] [Egualen sodium] lists logP -0.74 (via OCHEM).
The entry for COC(=O)c1cccc(C(=O)OC)c1 [Dimethyl isophthalate] lists logP 2.1 (via eChemPortal).
The entry for Cc1ccc(C(N)=O)cc1N [3-Amino-4-methylbenzamide] lists logP -0.2 (via eChemPortal).
The entry for O=C(O)CCCCCCCCC(=O)O [Decanedioic acid] lists logP 1.5 (via eChemPortal).
The entry for CC1c2nc3ccccc3c(=O)n2CN1c1ccccc1 (stereo unspecified) [3-Methyl-2-phenyl-1,3-dihydroimidazo[5,1-b]quinazolin-9-one] lists logP 1.79 (via OCHEM).
The entry for COc1ccc2c(c1)C(=O)OC(=O)C2(C)C lists logP 1.2 (via eChemPortal).
The entry for O=C(O)C1CCC(C(=O)O)CC1 (stereo unspecified) [1,4-Cyclohexanedicarboxylic acid] lists logP 1.32 (via eChemPortal).
The entry for CC(C)NCC(O)COc1ccccc1C1CC2CCC1C2 (stereo unspecified) [Bornaprolol] lists logP 4.17 (via OCHEM).
The entry for Nc1ccc([N+](=O)[O-])c2ccccc12 [1-Naphthylamine, 4-nitro-] lists logP 1.77 (via OCHEM).
The entry for OCCS [2-Mercaptoethanol] lists logP -0.056 (via eChemPortal).
The entry for COCC[N+](C)(C)C.[I-] [2-Methoxy-N,N,N-trimethylethan-1-aminium iodide] lists logP -2.62 (via OCHEM).
The entry for O=C(O)C1CCCCC1C(=O)O (stereo unspecified) [1,2-Cyclohexanedicarboxylic acid] lists logP 1.01 (via OCHEM).
The entry for CCCn1nc2ccccc2n1 [2-Propylbenzotriazole] lists logP 2.53 (via OCHEM).
The entry for CCCCC1=NC2(CCCC2)C(=O)N1.Cl lists logP 0.2 (via eChemPortal).
The entry for O=S(=O)([O-])c1ccc(Nc2nc(Cl)nc(Cl)n2)cc1.[Na+] lists logP -0.48 (via eChemPortal).
The entry for O=C(Nc1ccc2c(O)c(/N=N/c3ccccc3)c(S(=O)(=O)[O-])cc2c1)Nc1ccc2c(O)c(/N=N/c3ccccc3)c(S(=O)(=O)[O-])cc2c1.[Na+].[Na+] [C.I. Direct Orange 26, disodium salt] lists logP -2.215 (via eChemPortal).
The entry for O=S(=O)([O-])c1ccc2c(/N=N/c3ccc(/N=N/c4ccc(Nc5ccccc5)c(S(=O)(=O)[O-])c4)c4ccccc34)c(O)ccc2c1.[Na+].[Na+] lists logP -1.984 (via eChemPortal).
The entry for CC1(C)CC(N(N=O)C(O)=NC2C(O)OC(CO)C(O)C2O)CC(C)(C)[N+]1=O (stereo unspecified) lists logP 1.87 (via OCHEM).
The entry for Nc1cc(S(=O)(=O)[O-])c(O)c2c1C(=O)c1c(O)c(S(=O)(=O)[O-])cc(N)c1C2=O.[Na+].[Na+] [C.I. Acid Blue 45] lists logP -3.05 (via eChemPortal).
The entry for O=C(c1ccccc1)C1(F)C=CC(F)=CC1 (stereo unspecified) [(1,4-Difluorocyclohexa-2,4-dien-1-yl)(phenyl)methanone] lists logP 3.8 (via eChemPortal).
The entry for O=C(O)c1ccc[n+](-c2nc(NCCNc3ccc4c(c3S(=O)(=O)[O-])Oc3c(Cl)c5c(c(Cl)c3=N4)Oc3c(ccc(NCCNc4nc(Nc6cc(S(=O)(=O)[O-])ccc6S(=O)(=O)[O-])nc(-[n+]6cccc(C(=O)O)c6)n4)c3S(=O)(=O)[O-])N=5)nc(Nc3cc(S(=O)(=O)[O-])ccc3S(=O)(=O)[O-])n2)c1.[Na+].[Na+].[Na+].[Na+].[Na+].[Na+] [C.I. Reactive Blue 187] lists logP -2.36 (via eChemPortal).

The last 4 entries again:

The entry for CC1(C)CC(N(N=O)C(O)=NC2C(O)OC(CO)C(O)C2O)CC(C)(C)[N+]1=O (stereo unspecified) lists logP 1.87 (via OCHEM).
The entry for Nc1cc(S(=O)(=O)[O-])c(O)c2c1C(=O)c1c(O)c(S(=O)(=O)[O-])cc(N)c1C2=O.[Na+].[Na+] [C.I. Acid Blue 45] lists logP -3.05 (via eChemPortal).
The entry for O=C(c1ccccc1)C1(F)C=CC(F)=CC1 (stereo unspecified) [(1,4-Difluorocyclohexa-2,4-dien-1-yl)(phenyl)methanone] lists logP 3.8 (via eChemPortal).
The entry for O=C(O)c1ccc[n+](-c2nc(NCCNc3ccc4c(c3S(=O)(=O)[O-])Oc3c(Cl)c5c(c(Cl)c3=N4)Oc3c(ccc(NCCNc4nc(Nc6cc(S(=O)(=O)[O-])ccc6S(=O)(=O)[O-])nc(-[n+]6cccc(C(=O)O)c6)n4)c3S(=O)(=O)[O-])N=5)nc(Nc3cc(S(=O)(=O)[O-])ccc3S(=O)(=O)[O-])n2)c1.[Na+].[Na+].[Na+].[Na+].[Na+].[Na+] [C.I. Reactive Blue 187] lists logP -2.36 (via eChemPortal).

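The numbers are reported measurements, compiled and curated for the OPERA QSAR suite. One number stands for a compound and property, with no spread given. Method, purity and exact conditions of the single measurements are not given. A value may pool stereoisomers or salt forms, and the file does not say which form was measured. Some upstream entries may be estimates or bounds without being marked so.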